In US9102669B2, “Substituted piperidinyl-pyridazinyl derivatives useful as SCD 1 inhibitors” (Janssen Pharmaceutica NV, priority 2011, dated 2015):
pIC50: −log10 of the molar value. Where “and” joins values, the source holds several entries; their conditions need not be identical. Equal entries are not always repeated.

Protein sequences, listed by entry. Tags and fused reporters are not part of them. Lines headed by an entry give the natural chain unless they say otherwise; changes in a name come on top.
UniProt P07308: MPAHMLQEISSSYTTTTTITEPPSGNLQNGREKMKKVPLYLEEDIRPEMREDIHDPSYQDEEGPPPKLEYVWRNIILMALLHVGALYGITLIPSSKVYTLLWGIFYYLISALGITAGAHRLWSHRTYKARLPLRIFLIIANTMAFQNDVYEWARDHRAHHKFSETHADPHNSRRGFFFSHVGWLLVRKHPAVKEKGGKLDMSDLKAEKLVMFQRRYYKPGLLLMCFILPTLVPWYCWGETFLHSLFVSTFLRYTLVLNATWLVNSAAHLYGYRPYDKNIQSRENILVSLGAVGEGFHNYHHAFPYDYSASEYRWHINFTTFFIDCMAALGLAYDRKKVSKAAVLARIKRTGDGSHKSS
UniProt O00767: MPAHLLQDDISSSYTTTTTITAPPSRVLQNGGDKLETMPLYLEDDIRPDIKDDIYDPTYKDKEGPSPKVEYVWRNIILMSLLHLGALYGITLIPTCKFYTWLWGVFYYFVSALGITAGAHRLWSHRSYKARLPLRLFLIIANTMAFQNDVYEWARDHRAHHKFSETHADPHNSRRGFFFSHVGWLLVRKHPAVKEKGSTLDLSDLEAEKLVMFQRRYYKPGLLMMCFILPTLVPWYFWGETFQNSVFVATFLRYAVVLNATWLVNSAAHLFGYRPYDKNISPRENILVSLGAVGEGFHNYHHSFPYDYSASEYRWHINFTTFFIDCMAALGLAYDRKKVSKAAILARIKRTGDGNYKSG

How the values were obtained:
[1] = biological target: SCD1 (Rattus norvegicus (Rat), UniProt P07308); assay: SCD1 enzymatic assay in rat liver microsomes (RLM); type: biochemical
[2] = biological target: SCD1 (Homo sapiens (Human), UniProt O00767); assay: SCD1 13C-palmitic acid assay in A431 cells; type: cell-based; settings: read-out: A431 cells 13C-PA IC50

Row | SMILES | pIC50 [1] | inhibition at 1 µM ([1]; 1 μM test compound) [%] | pIC50 [2] | % Inh.@ 1 μM ([1]; 1 μM test compound)
1 | Cn1cc(-c2ccc(N3CCC(N4CCc5ccc(C(F)(F)F)cc54)CC3)nn2)cn1 [Compound #60, 1-(1-(6-(1-methyl-1H-pyrazol-4-yl)pyridazin-3-yl)piperidin-4-yl)-6-(trifluoromethyl)indoline] | 6.76 | 81 | – | –
2 | Cn1cc(-c2ccc(N3CCC(n4ccc5ccc(F)cc54)CC3)nn2)cn1 [Compound #63, 6-fluoro-1-(1-(6-(1-methyl-1H-pyrazol-4-yl)pyridazin-3-yl)piperidin-4-yl)-1H-indole] | – | – | 7.60 | –
3 | Cn1cc(-c2ccc(N3CCC(N4CCc5ccc(F)cc54)CC3)nn2)cn1 [Compound #11, 6-fluoro-1-(1-(6-(1-methyl-1H-pyrazol-4-yl)pyridazin-3-yl)piperidin-4-yl)indoline] | 7.68 and 7.72 and 7.04 and 7.80 | 99 | – | 100% and 94% and 102%
